Reference: patent US9278947B2 (dated 2016)
Like-named read-outs stand apart in the source and are kept apart here.

Tested on: human platelets
Details: 100 μM compound, 15 min pre-incubation, 1.25 μM ADP + 50 μM serotonin, 5 min
[1] = FIG. 6 repeat, same donor (PBS control 91.8%)

SMILES | platelet aggregation reached, % of the maximal possible aggregation (FIG. 5 (PBS control 85.1%)) [%] | platelet aggregation reached, % of the maximal possible aggregation [1] [%]
CN(C)CCCC1(c2ccc(F)cc2)OCc2cc(C#N)ccc21 (stereo not shown) [Citalopram, 1-(3-Dimethylamino-propyl)-1-(4-fluoro-phenyl)-1,3-dihydro-isobenzofuran-5-carbonitrile] | 23.1 | 28.7
C[N+](C)(C)CCCC1(c2ccc(F)cc2)OCc2cc(C#N)ccc21 (stereo not shown) [NMC] | 20.2 | 22.9
